Cyclic peptide permeability, from CycPeptMPDB

Collected by the curators of CycPeptMPDB (Li et al. 2023) from Townsend et al. 2020, doi:10.26434/chemrxiv.13335941.v1.

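The data file gives no further conditions (lipid, pH, time, direction or concentration), and values from different papers need not be comparable. The list need not hold all peptides of the study. Entries at the database's floor value (log10 P of -10) are not listed.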

PAMPA is the parallel artificial membrane permeability assay, which has no cells and reads passive diffusion. Permeability is given as log10 of P in cm/s; higher (less negative) is more permeable.

- CCCN1CC(=O)N[C@@H](CC(C)C)C(=O)N[C@@H](CC(C)C)C(=O)N2CCC[C@H]2C(=O)N(Cc2ccccc2)CC(=O)N[C@@H](Cc2ccccc2)C(=O)N2CCC[C@H]2C1=O: PAMPA -5.65 (log10 cm/s)
- CC(C)C[C@@H]1C(=O)N(C)[C@H](CC(C)C)C(=O)N2CCC[C@H]2C(=O)N(C)[C@@H](CC(C)C)C(=O)N[C@@H](Cc2ccccc2)C(=O)N2CCC[C@H]2C(=O)N[C@@H](C)C(=O)N1C: PAMPA -5.64 (log10 cm/s)
- CC(C)C[C@@H]1NC(=O)[C@@H](C)N(C)C(=O)[C@H](Cc2ccccc2)NC(=O)[C@@H](CC(C)C)NC(=O)[C@H]2CCCN2C(=O)[C@H](CC(C)C)N(C)C1=O: PAMPA -5.72 (log10 cm/s)
- CC(C)C[C@@H]1NC(=O)[C@@H](C)N(C)C(=O)[C@H](Cc2ccccc2)NC(=O)CN(Cc2ccccc2)C(=O)[C@H]2CCCN2C(=O)CN(Cc2ccccc2)C1=O: PAMPA -5.72 (log10 cm/s)
- CC(C)C[C@@H]1C(=O)N(C)[C@@H](CC(C)C)C(=O)N2CCC[C@@H]2C(=O)N[C@H](CC(C)C)C(=O)N[C@@H](Cc2ccccc2)C(=O)N[C@@H](C)C(=O)N1C: PAMPA -5.70 (log10 cm/s)
- CC(C)C[C@@H]1NC(=O)[C@H]2CCCN2C(=O)[C@H](CC(C)C)N(C)C(=O)[C@@H](CC(C)C)NC(=O)[C@H](C)N(C)C(=O)[C@H](Cc2ccccc2)NC1=O: PAMPA -5.49 (log10 cm/s)
- CC(C)C[C@@H]1NC(=O)[C@@H](CC(C)C)NC(=O)[C@H](C)NC(=O)[C@H](Cc2ccccc2)NC(=O)CN(Cc2ccccc2)C(=O)[C@@H]2CCCN2C1=O: PAMPA -5.80 (log10 cm/s)
- CCCN1CC(=O)N[C@@H](CC(C)C)C(=O)N[C@@H](CC(C)C)C(=O)N2CCC[C@H]2C(=O)N[C@@H](CC(C)C)C(=O)N[C@@H](Cc2ccccc2)C(=O)N2CCC[C@H]2C1=O: PAMPA -5.99 (log10 cm/s)
- CCCN1CC(=O)N[C@H](CC(C)C)C(=O)N[C@@H](CC(C)C)C(=O)N2CCC[C@@H]2C(=O)N(Cc2ccccc2)CC(=O)N[C@@H](Cc2ccccc2)C1=O: PAMPA -5.01 (log10 cm/s)
- CC(C)C[C@@H]1NC(=O)[C@H]2CCCN2C(=O)[C@H](CC(C)C)N(C)C(=O)[C@H](CC(C)C)N(C)C(=O)[C@@H](C)NC(=O)[C@H](Cc2ccccc2)NC1=O: PAMPA -5.57 (log10 cm/s)
- CC(C)C[C@@H]1NC(=O)[C@@H](C)N(C)C(=O)[C@H]2CCCN2C(=O)[C@H](Cc2ccccc2)NC(=O)[C@H](CC(C)C)N(C)C(=O)[C@@H]2CCCN2C(=O)C[C@H](Cc2ccccc2)NC1=O: PAMPA -5.58 (log10 cm/s)
- CCCN1CC(=O)N(C)[C@H](CC(C)C)C(=O)N(C)[C@@H](CC(C)C)C(=O)N2CCC[C@@H]2C(=O)N(C)[C@@H](CC(C)C)C(=O)N[C@@H](Cc2ccccc2)C1=O: PAMPA -5.08 (log10 cm/s)
- CC(C)C[C@@H]1C(=O)N[C@@H](Cc2ccccc2)C(=O)N2CCC[C@@H]2C(=O)N(C)[C@@H](C)C(=O)N[C@H](CC(C)C)C(=O)N[C@@H](Cc2ccccc2)CC(=O)N2CCC[C@H]2C(=O)N1C: PAMPA -5.95 (log10 cm/s)
- CC(C)C[C@@H]1C(=O)N[C@@H](Cc2ccccc2)C(=O)N2CCC[C@@H]2C(=O)N[C@@H](Cc2ccccc2)CC(=O)N(C)[C@@H](CC(C)C)C(=O)N[C@H](CC(C)C)C(=O)N2CCC[C@@H]2C(=O)N1C: PAMPA -5.37 (log10 cm/s)
- CC(C)C[C@@H]1NC(=O)C[C@H](Cc2ccccc2)NC(=O)[C@H](Cc2ccccc2)NC(=O)[C@H](CC(C)C)N(C)C(=O)[C@@H]2CCCN2C(=O)[C@H](CC(C)C)N(C)C1=O: PAMPA -5.14 (log10 cm/s)
- CC(C)C[C@H]1NC(=O)[C@H](CC(C)C)N(C)C(=O)[C@H](C)NC(=O)[C@@H]2CCCN2C(=O)[C@H](Cc2ccccc2)NC(=O)CN(Cc2ccccc2)C(=O)[C@@H]2CCCN2C1=O: PAMPA -5.26 (log10 cm/s)
- CC(C)C[C@@H]1NC(=O)[C@H](CC(C)C)N(C)C(=O)[C@@H](C)NC(=O)[C@H]2CCCN2C(=O)[C@H](Cc2ccccc2)NC(=O)[C@@H](CC(C)C)N(C)C(=O)[C@@H]2CCCN2C1=O: PAMPA -5.38 (log10 cm/s)